# System: mitochondrial inner membrane potential (ΔΨ)
# Experiment: Mitochondrial inner membrane potential, Rhodamine 123 fluorescence quenching in isolated mitochondria
# Excerpt: In response to variations in ΔΨ this dye accumulates proportionally inside the mitochondrial matrix, where its fluorescence is quenched, thus fluorescence changes reflect the changes in the IM potential[33],[34]. […] All the data were normalized relative to the fluorescence intensity after addition CCCP (set to 1).
# To quantify the effect of ligand addition we have compared the ligand concentrations required to recover 50% of the initial fluorescence drop (dotted line), i.e. the average of value after addition of EtOH and fully decoupled ΔΨ.
# At the end of each experiment the carbonyl cyanide-m-chlorophenyl hydrazone (CCCP, the IM potential uncoupler) was added at 4 μM for the normalization.
smiles,measurement,setting,value
"Brc1c(Br)c(Br)c2[nH]nnc2c1Br [TBBt, 4,5,6,7-tetrabromo-1H-benzotriazole]",ligand concentration required to recover 50% of the initial fluorescence drop,"Rhodamine 123, yeast mitochondria energized with EtOH, normalized to CCCP",less than 2 µM
same,ligand concentration at which relative fluorescence c.a. 0.95 was reached,"Rhodamine 123, yeast mitochondria, 1 = fully uncoupled (CCCP)",~4 µM

# Reference: publication PMC8654832, “5,6-diiodo-1H-benzotriazole: new TBBt analogue that minutely affects mitochondrial activity” (Scientific Reports, 2021)
